Values quoted from earlier work, collected in patent publication US20230114177A1, “NOVEL DEUTERIUM-SUBSTITUTED PYRIMIDINE DERIVATIVE AND PHARMACEUTICAL COMPOSITION COMPRISING SAME” (ONCOBIX CO., LTD., priority 2019, published 2023).

System: ALK-positive non-small cell lung cancer
Details: clinical study, cited from earlier work

In the case of `C[C@@H](Oc1cc(-c2cnn(C3CCNCC3)c2)cnc1N)c1c(Cl)ccc(F)c1Cl` [crizotinib], the tumor response rate (patients with mainly adenocarcinoma tissue-type lung cancer) is listed as “about 65%”, the progression-free survival period (3 months in the chemotherapy group) is listed as 7.7 months and the “most common adverse events reported” value is listed as “visual field abnormality, diarrhea, vomiting, edema, nausea”.
